Test system: Coptotermes formosanus
Settings: in vivo

SMILES: OB(O)O [Boric acid only, Boric acid]
- Termite mortality (%): 95.2%

From patent US9414598B2, “Protecting wood with stabilized boron complexes” (priority 2006, dated 2016)
